# Results: US11787833B2, “Modified cyclic dinucleoside compounds as sting modulators” (ALIGOS THERAPEUTICS, INC., priority 2019, dated 2023)
# The chains behind the UniProt entries cited, without tags or fusion partners.
# UniProt Q86WV6, whole entry H232R: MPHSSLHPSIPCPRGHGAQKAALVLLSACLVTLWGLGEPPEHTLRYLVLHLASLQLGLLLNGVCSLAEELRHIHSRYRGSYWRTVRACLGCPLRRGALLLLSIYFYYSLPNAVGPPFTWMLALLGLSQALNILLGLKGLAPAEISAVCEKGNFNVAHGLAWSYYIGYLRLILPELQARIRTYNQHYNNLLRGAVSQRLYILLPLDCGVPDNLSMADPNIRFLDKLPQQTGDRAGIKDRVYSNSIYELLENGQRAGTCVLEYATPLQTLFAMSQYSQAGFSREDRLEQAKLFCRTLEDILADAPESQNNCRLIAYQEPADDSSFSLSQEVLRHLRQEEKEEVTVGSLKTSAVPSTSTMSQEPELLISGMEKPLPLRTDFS
# Read-outs that look alike come from different tables or passages of the source.
# Target: T1, 293T-Dual hSTING-R232 cells (Homo sapiens, UniProt Q86WV6, H232R)
# T1 construct: host or cells: 293T-Dual hSTING-R232 cells (HEK 293T)
# Assay: 293T R232 cell reporter assay (HEK 293T reporter assay)
# Assay type: cell-based
# Conditions: digitonin 10 μg/mL, 30 min exposure, 20 h incubation
# Procedure: 293T-Dual hSTING-R232 cells (Invivogen) were plated in 96 well plates at a density of 5×10^4 cells per well in DMEM supplemented with 10% FBS, 1% Pen-Strep, 1% non-essential amino acids, 1% glutamine, and 1% HEPES. Assay setup took place after allowing cells to adhere for 48 h. Compounds dissolved in water were serially diluted in dosing buffer containing 10 μg/mL digitonin. Media was aspirated from the cells, and 50 μL buffer with compound was added in triplicate. After 30 min at 37° C., buffer was aspirated and replaced with 100 μL media. Cells were incubated for 20 h at 37° C., 5% CO2. IFN-beta expression and activation of the interferon regulatory factor (IRF) were measured based on luciferase and alkaline phosphatase reporter activity, respectively. Cell viability was determined in parallel.
SMILES,"EC50 (alkaline phosphatase reporter, read-out: EC50 [μM] IRF reporter) [µM]","EC50 (luciferase reporter, read-out: EC50 [μM] IRN-β reporter) [µM]","EC50 (EC50 [μM] IRF reporter, alkaline phosphatase reporter) [µM]","EC50 (EC50 [μM] IRN-β reporter, luciferase reporter) [µM]"
CO[C@H]1[C@H]2O[P@](=O)(SCC(=O)OC(C)(C)C)OC[C@H]3O[C@@H](n4cnc5c(N)ncnc54)[C@H](F)[C@@H]3O[P@](=O)(SCC(=O)OC(C)(C)C)OC[C@H]1O[C@H]2c1snc2c(=O)[nH]c(N)nc12 [Compound 1-50a],< 0.25,0.25 to 100,,
CO[C@H]1[C@H]2O[P@@](=O)(SCC(=O)OC(C)(C)C)OC[C@H]3O[C@@H](n4cnc5c(N)ncnc54)[C@H](F)[C@@H]3O[P@](=O)(SCC(=O)OC(C)(C)C)OC[C@H]1O[C@H]2c1snc2c(=O)[nH]c(N)nc12 [Compound 1-50b],,,< 0.25,0.25 to 100
